Values quoted from earlier work as cited in patent US10993983B2, “Cyclic peptide epitopes and small-molecule mimics for inducing autophagy” (TRUSTEES OF TUFTS COLLEGE, priority 2016, dated 2021).

Conditions: background; cited from earlier work

## YGRKKRRQRRRGGTNVFNATFEIWHDGEFGT [Tat-Beclin 1]
  cytotoxicity, result in words: cytotoxic at high concentrations or following prolonged treatment
